Source: PubChem
A selection: hits, their analogues and other compounds. The true share with any hit is near 2%.
aSyn yeast inh = rescues yeast growth from alpha-synuclein toxicity | Yeast expressing alpha-synuclein, growth rescue, BacTiter-Glo, 24 h | Potency, µM (doses to about 46.1 µM), for inactives: at the highest dose growth rescue (activation), actives largely listed as activators | actives 0.14% (n = 370,000) | AID 652106; further: % of control where 0% means no effect; nearly all actives have a fitted effect of over 65% in size
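Readout is rescue of growth in alpha-synuclein-expressing yeast, so inhibitors of toxicity appear as activators. Growth after 24 hr at 30 deg C in galactose medium is quantified by luminescence.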
Rango-impB inh = inhibitors of Rango-importin beta complex formation; actives 0.031% (n = 340,000); Q14974; Potency, µM (series often up to 92.2 µM), for the others: at the top dose inhibition of complex formation; Rango CFP/YFP FRET sensor + importin beta, 45 min; calls by dose curve;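 further: 0% = DMSO wells and 100% = buffer wells lacking importin beta; nearly all actives have a fitted effect of over 15% in size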
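Inhibition scored from the CFP 486 nm/YFP 530 nm FRET ratio 45 min after adding 0.125 microM importin beta to 50 nM Rango biosensor preincubated 5 min with compound (room temperature, PBS with DTT, Tween-20, BSA). No-importin wells as positive control.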
ASM inhibitor = blocks human secretory acid sphingomyelinase | P17405 | placental ASM, HMU-PC fluorogenic substrate, 60 min | Potency, µM (highest dose often 57.5 µM), for inactives: top-dose activity change, negative = inhibition, most hits filed as inhibitors | actives 0.006% (n = 340,000)
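Human placenta-derived ASM enzyme was preincubated with compound for 10 minutes at room temperature, then given fluorogenic substrate HMU-PC0 (9 uM final) for 60 minutes at 37 °C; a pH 10 stop preceded fluorescence reading at Ex 386/Em 447 nm.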
TDP43 rescue = inhibitors of TDP-43 toxicity in yeast | AID 652104 | TDP-43 expressing yeast growth rescue, BacTiter-Glo, 24 h | Potency, µM (highest dose often 46.1 µM), without a hit: top-dose growth rescue (activation), actives largely listed as activators | actives 1.8% (n = 410,000); further: % of control where 0% means no effect; nearly all actives have a fitted effect of over 50% in size
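Yeast cells expressing TDP-43 under galactose induction are exposed to compounds for 24 hr at 30 deg C. BacTiter-Glo luminescence measures growth, so protective compounds score as activators.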
Abeta yeast res = restores growth of yeast expressing A-beta42 peptide; yeast expressing A-beta42, growth rescue, OD600, 48 h; response scale: 0% DMSO, 100% iron-clioquinol control; Potency, µM (titrated, usually from 46.1 µM), actives largely listed as activators; actives 0.063% (n = 410,000); further: nearly all actives have a fitted effect of over 55% in size
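Growth rescue measured by 600 nm absorbance after 48 h yeast culture at 30 C with compound. Values normalized between DMSO and an equimolar ferric chloride plus clioquinol control.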
Rango release inh = inhibition of RanGTP-driven Rango-importin beta dissociation; Biochemical FRET Rango-importin beta, RanGTP-induced dissociation; Potency, µM (highest dose often 46.1 µM), for the others: at the top dose activity change, negative = inhibition; O95149+P62826; actives 0.071% (n = 340,000); calls by dose curve; further: % of control where 0% means no effect; nearly all actives have a fitted effect of over 45% in size
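Quantitative HTS using a FRET biosensor: 0.1 uM Rango, 0.25 uM importin beta, 0.6 uM Ran, 2 mM GTP, 0.2 uM RCC1 final, PBS with DTT, Tween-20 and BSA. Post-read taken 45 min after Ran addition.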
* = called active by the depositor; [ ] = dose if it differs, or a comment. Unless noted, the call rests on the fitted dose curve; in most records, active means well fitted curve in the direction sought with a large enough effect; inconclusive means small, poorly fitted or top-dose-only effect, or another doubt; inactive means no such curve, though single readings can be large; an effect the other way counts as inactive or inconclusive. Potency means the concentration at half of the fitted maximal effect.

Screening CCOC(=O)C1CCN(C(=O)c2cc3c(-c4ccc(OC)c(OC)c4)nn(C)c3s2)CC1 returned aSyn yeast inh -12%, Rango-impB inh 2%, ASM inhibitor -1%, TDP43 rescue 14µM*, Abeta yeast res inactive and Rango release inh 3%.
Screening CCOC(=O)N1CCC(NC(=O)c2cc3c(-c4ccc(OC)c(OC)c4)nn(C)c3s2)CC1 returned aSyn yeast inh -4%, Rango-impB inh 0%, ASM inhibitor -17%, TDP43 rescue -1%, Abeta yeast res inactive and Rango release inh 0%.
For O=C(c1ccc2nc(-c3ccccc3)c(-c3ccccc3)nc2c1)N1CCCCC1 the results were aSyn yeast inh -1%, Rango-impB inh -3%, ASM inhibitor -2%, TDP43 rescue 35µM*, Abeta yeast res inactive and Rango release inh 3%.
`CCOC(=O)C1CCN(C(=O)c2ccc3nc(-c4ccc(OC)cc4)c(-c4ccc(OC)cc4)nc3c2)CC1` gave aSyn yeast inh 0%, Rango-impB inh inconclusive, ASM inhibitor inactive, TDP43 rescue -19%, Abeta yeast res inactive and Rango release inh 16µM*.
COC(=O)c1cc(Cl)cc2c(C)c(C3(O)CCCCC3)[nH]c12 was read as aSyn yeast inh inconclusive, Rango-impB inh -3%, ASM inhibitor 13%, TDP43 rescue 35µM*, Abeta yeast res inactive and Rango release inh 1%.
`COC(=O)c1ccc2c(C)c(C3(O)CCCCC3)[nH]c2c1` gave aSyn yeast inh 0%, Rango-impB inh 0%, ASM inhibitor 39%, TDP43 rescue 20µM*, Abeta yeast res inactive and Rango release inh 11%.
For Cc1c(C2(O)CCCCC2)[nH]c2ccc(C#N)cc12 the results were aSyn yeast inh 1%, Rango-impB inh -6%, ASM inhibitor -9%, TDP43 rescue -8%, Abeta yeast res inactive and Rango release inh 2%.
For Cc1cc(C)c(NC(=O)Cc2csc(C)n2)c(Cl)c1 the results were TDP43 rescue 16% and Abeta yeast res inactive.
`CCc1ccc(NC(=O)c2cc(C(C)=O)n3ccccc23)cc1` gave TDP43 rescue 11µM* and Abeta yeast res inactive.
Screening COc1ccc(NC(=O)c2cc(C(C)=O)n3ccccc23)cc1Cl returned TDP43 rescue 0% and Abeta yeast res inactive.
`S=c1nc[nH]c2n[nH]nc12` gave aSyn yeast inh 0%.
CCOc1cccc(C(=O)Nc2nc(-c3ccc(S(=O)(=O)N4CCOCC4)cc3)cs2)c1 was read as aSyn yeast inh 8%, Rango-impB inh 65µM*, ASM inhibitor -11%, TDP43 rescue 4%, Abeta yeast res inactive and Rango release inh -5%.
`Cc1ccc(-c2nnc(Nc3ccc(O)cc3)c3ccccc23)cc1S(=O)(=O)NCC1CCCO1` (stereo not given) gave TDP43 rescue 0% and Abeta yeast res inactive.
COc1ccc(-c2cn3nc(N4CCC(C(=O)NCc5ccccc5F)CC4)sc3n2)cc1 was read as TDP43 rescue 2% and Abeta yeast res inactive.
Screening Clc1ccc(N2CCN(c3ccnc(Cl)n3)CC2)cc1 returned aSyn yeast inh inconclusive, Rango-impB inh 0%, ASM inhibitor -6%, TDP43 rescue 18µM*, Abeta yeast res inactive and Rango release inh 1%.
`CSc1nccc(N2CCN(c3ccc(F)cc3)CC2)n1` gave aSyn yeast inh 6%, Rango-impB inh -2%, ASM inhibitor 2%, TDP43 rescue -8%[0.397 µM], Abeta yeast res inactive and Rango release inh -4%.
Screening C=C1C(=O)[C@]23C[C@H]1CC[C@H]2[C@]1(C)[C@@H](OC(C)=O)CC[C@@](C)(C(=O)OC)[C@H]1C[C@@H]3OC(C)=O returned aSyn yeast inh 17%, TDP43 rescue 18µM* and Abeta yeast res inactive.
C=C1C(=O)[C@]23C[C@H]1CCC2[C@@]1(C)C(C[C@@H]3O)[C@](C)(C(=O)OC)CC[C@@H]1OC(C)=O (stereo not given in full) was read as aSyn yeast inh -81%, TDP43 rescue inconclusive and Abeta yeast res inactive.
`C=C1C(=O)[C@]23C[C@H]1CC[C@H]2[C@]1(C)[C@@H](OC(C)=O)CC[C@@](C)(C(=O)O)[C@H]1C[C@@H]3O` gave aSyn yeast inh inconclusive, TDP43 rescue 11µM* and Abeta yeast res inactive.
CCN(CC)S(=O)(=O)c1ccc(Cl)c(NC(=O)COC(=O)C2CCCCC2)c1 was read as aSyn yeast inh 16%, Rango-impB inh 2%, ASM inhibitor 1%, TDP43 rescue 13%, Abeta yeast res 11µM* and Rango release inh 28%.
For Cc1cc(Br)c(NC(=O)COC(=O)C2CCCCC2)c(Br)c1 the results were aSyn yeast inh 0%, Rango-impB inh -2%, ASM inhibitor 2%, TDP43 rescue 16µM*, Abeta yeast res inactive and Rango release inh -1%.
For COc1ccc(-n2nc(C(=O)Nc3ccc(C(C)=O)cc3)nc2-c2ccccc2)cc1 the results were TDP43 rescue 22µM* and Abeta yeast res inactive.
Screening COc1ccc(-c2nc(C(=O)Nc3cccc(C(C)=O)c3)nn2-c2ccc(Cl)cc2)cc1 returned TDP43 rescue 0% and Abeta yeast res inactive.
For COc1ccc(C(C#N)=Cc2cccc(OC)c2OC)cc1 the results were aSyn yeast inh -23%, TDP43 rescue 18µM* and Abeta yeast res inactive.
For Cc1nc(-n2[nH]c3c(c2=O)CCCC3)[nH]c(=O)c1Cc1ccccc1 the results were aSyn yeast inh inconclusive, Rango-impB inh inconclusive, ASM inhibitor 0%, TDP43 rescue 10µM*, Abeta yeast res inconclusive and Rango release inh inconclusive.
For Cc1nc(N2CCc3ccccc3C2)[nH]c(=O)c1Cc1ccccc1 the results were aSyn yeast inh 1%, Rango-impB inh 0%, ASM inhibitor -1%, TDP43 rescue -4%, Abeta yeast res inactive and Rango release inh 20%.
For COc1cc2sc3cc(NCc4ccc5c(c4)OCO5)ccc3c(=O)c2cc1OC the results were aSyn yeast inh 2%, Rango-impB inh inconclusive, ASM inhibitor inactive, TDP43 rescue 21%, Abeta yeast res inactive and Rango release inh inconclusive.
COc1cccc2sc3cc(NCc4ccc5c(c4)OCO5)ccc3c(=O)c12 was read as aSyn yeast inh inconclusive, Rango-impB inh inconclusive, ASM inhibitor inactive, TDP43 rescue 21%, Abeta yeast res inactive and Rango release inh 21µM*.

Looked up by structure from above (3):
For COc1ccc(C(C#N)=Cc2cccc(OC)c2OC)cc1 the results were aSyn yeast inh -23%, TDP43 rescue 18µM* and Abeta yeast res inactive.
For Cc1nc(-n2[nH]c3c(c2=O)CCCC3)[nH]c(=O)c1Cc1ccccc1 the results were aSyn yeast inh inconclusive, Rango-impB inh inconclusive, ASM inhibitor 0%, TDP43 rescue 10µM*, Abeta yeast res inconclusive and Rango release inh inconclusive.
COc1cccc2sc3cc(NCc4ccc5c(c4)OCO5)ccc3c(=O)c12 was read as aSyn yeast inh inconclusive, Rango-impB inh inconclusive, ASM inhibitor inactive, TDP43 rescue 21%, Abeta yeast res inactive and Rango release inh 21µM*.
